Laboratory results reported in ChEMBL document CHEMBL4219205, “Utilizing a structure-based docking approach to develop potent G protein-coupled receptor kinase (GRK) 2 and 5 inhibitors” (Bioorg Med Chem Lett, 2018).
pIC50: −log10 of the molar value.

Sequences of proteins named here, by UniProt entry; tags and fusion partners are left off.
UniProt P34947, whole entry: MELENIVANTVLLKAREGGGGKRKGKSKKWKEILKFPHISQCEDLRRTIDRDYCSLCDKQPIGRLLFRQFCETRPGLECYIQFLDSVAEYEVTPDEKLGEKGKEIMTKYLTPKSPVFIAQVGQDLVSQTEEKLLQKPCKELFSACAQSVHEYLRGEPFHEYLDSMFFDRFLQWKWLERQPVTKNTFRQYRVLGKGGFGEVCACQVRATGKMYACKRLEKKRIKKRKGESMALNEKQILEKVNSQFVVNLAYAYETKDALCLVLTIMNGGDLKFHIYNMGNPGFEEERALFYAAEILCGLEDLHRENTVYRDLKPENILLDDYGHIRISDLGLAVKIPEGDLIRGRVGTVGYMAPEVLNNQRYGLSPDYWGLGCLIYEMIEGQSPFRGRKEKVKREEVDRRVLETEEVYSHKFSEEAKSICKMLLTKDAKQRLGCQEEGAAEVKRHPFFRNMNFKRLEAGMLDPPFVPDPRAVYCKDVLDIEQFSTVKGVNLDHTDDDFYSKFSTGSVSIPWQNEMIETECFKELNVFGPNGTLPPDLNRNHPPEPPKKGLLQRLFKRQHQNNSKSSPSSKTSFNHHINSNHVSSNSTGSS

Molecular target: G protein-coupled receptor kinase 5 (Homo sapiens, UniProt P34947)
Assay: Inhibition of GRK5 (unknown origin) preincubated for 10 mins followed by peptide substrate and ATP addition measured after 1 hr by TR-FRET assay

## COc1ccccc1C(C)NC(=O)c1cc(C2NC(=O)NC(C)=C2C(=O)Nc2ccc3[nH]ncc3c2)ccc1F (stereo unspecified)
  pIC50: 5.55
